Test results published in US6958318B2, “Recombinant bacterial cells for delivery of PNP to tumor cells” (The UAB Research Foundation, priority 1993, dated 2005).
Where “and” joins values, the source holds several entries; their conditions need not be identical. Equal entries are not always repeated.

Protein sequences, listed by entry. Tags and fused reporters are not part of them. Lines headed by an entry give the natural chain unless they say otherwise; changes in a name come on top. Residues count along the entry.
UniProt P0ABP8, 2-239 limits assumed: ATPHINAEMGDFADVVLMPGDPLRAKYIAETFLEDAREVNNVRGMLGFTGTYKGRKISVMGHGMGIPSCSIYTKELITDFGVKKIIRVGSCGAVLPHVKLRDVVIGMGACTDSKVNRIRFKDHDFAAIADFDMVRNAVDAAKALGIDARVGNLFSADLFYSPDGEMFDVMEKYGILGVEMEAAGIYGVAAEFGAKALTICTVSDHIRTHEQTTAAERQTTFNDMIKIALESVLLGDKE
UniProt P00491: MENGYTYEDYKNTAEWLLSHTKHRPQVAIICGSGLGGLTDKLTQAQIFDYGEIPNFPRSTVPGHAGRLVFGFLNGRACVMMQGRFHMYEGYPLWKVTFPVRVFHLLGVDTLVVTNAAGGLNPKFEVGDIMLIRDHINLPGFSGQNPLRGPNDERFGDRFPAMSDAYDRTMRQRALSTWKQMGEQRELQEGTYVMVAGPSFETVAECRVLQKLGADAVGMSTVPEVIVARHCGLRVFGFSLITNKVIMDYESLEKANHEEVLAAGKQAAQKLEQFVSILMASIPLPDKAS

Experiments:
E. coli PNP = E. coli PNP (Escherichia coli, UniProt P0ABP8); assay: Cleavage of purine analog nucleosides by E. coli PNP (HPLC); format: biochemical; settings: in words
human PNP = human PNP (Homo sapiens, UniProt P00491); assay: Cleavage of purine analog nucleosides by human PNP (HPLC); format: biochemical; settings: for Substrate quality for mammalian (human) PNP: in words
[1] = test system: DNA, RNA and protein synthesis; assay: Incorporation of thymidine into DNA, uridine into RNA, leucine into protein

With `Nc1nc(Cl)nc2c1ncn2[C@H]1C[C@H](O)[C@@H](CO)O1` the “Substrate quality for bacterial (E. coli) PNP” value (E. coli PNP) was “good substrates” and the “Substrate quality for mammalian (human) PNP” value (human PNP) was “poor substrates”.

In the case of `Cc1ncnc2nc[nH]c12` [MeP, 6-methylpurine, reference compound], the “Effect on macromolecular synthesis” value [1] was “RNA and protein synthesis were affected most”.

In the case of 2-F-2′-F-2′-deoxyadenosine, the “Substrate quality for mammalian (human) PNP” value (human PNP) was “poor substrates”, the “Percent of substrate cleaved by Human PNP, 100 μM” value (human PNP; substrate 100 μM, 0.1 unit/ml enzyme, 25° C., 1 hour, stopped by boiling) was 0(88) Percent and 0(86) Percent and the “Percent of substrate cleaved by Human PNP, 1 mM” value (human PNP; substrate 1 mM, 25° C., 1 hour, stopped by boiling) was 0(50) Percent and 0(47) Percent.
